Reference: PubChem BioAssay AID1645882 (National Center for Advancing Translational Sciences (NCATS), 2021)
This is a selection; strong and weak results do not stand in their true shares. Some results for these compounds are left out of this collection, so the calls shown say nothing about other tests. Inconclusive results are not listed. Active and inactive are the calls of the source. Calls come from the whole dose curve; as a rule, active = well fitted inhibition curve with a large enough effect; inconclusive = small, poorly fitted or top-dose-only effect; inactive = no such curve, though single readings can be large or run the other way.

Protein sequences, listed by entry. Tags and fused reporters are not part of them.
UniProt O95398, whole entry: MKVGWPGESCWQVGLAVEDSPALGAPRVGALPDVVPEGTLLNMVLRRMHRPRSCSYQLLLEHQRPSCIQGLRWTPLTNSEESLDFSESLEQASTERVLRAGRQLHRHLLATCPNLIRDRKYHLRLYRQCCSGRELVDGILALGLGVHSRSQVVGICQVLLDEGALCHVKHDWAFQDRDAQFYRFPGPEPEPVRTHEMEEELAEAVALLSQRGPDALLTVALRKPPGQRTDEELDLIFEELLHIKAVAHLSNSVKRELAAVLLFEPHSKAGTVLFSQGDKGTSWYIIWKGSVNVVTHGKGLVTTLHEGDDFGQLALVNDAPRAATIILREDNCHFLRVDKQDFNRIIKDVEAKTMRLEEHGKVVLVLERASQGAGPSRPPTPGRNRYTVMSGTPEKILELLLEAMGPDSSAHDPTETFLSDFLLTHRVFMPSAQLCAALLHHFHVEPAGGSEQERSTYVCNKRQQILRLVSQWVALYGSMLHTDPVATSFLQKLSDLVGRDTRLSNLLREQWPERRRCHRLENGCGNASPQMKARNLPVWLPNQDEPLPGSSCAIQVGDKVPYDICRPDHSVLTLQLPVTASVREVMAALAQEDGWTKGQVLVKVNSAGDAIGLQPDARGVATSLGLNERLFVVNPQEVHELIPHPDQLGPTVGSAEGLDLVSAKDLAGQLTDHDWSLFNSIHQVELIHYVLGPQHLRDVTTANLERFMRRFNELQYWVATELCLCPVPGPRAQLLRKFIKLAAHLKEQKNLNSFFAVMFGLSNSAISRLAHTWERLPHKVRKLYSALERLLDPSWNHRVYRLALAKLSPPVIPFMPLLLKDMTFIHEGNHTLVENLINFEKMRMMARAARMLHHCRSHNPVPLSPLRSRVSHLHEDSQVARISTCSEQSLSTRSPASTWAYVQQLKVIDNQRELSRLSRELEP

The compounds below were run against Rap guanine nucleotide exchange factor 3 (Homo sapiens) (UniProt O95398) (assay: Validation qHTS for antagonist of cAMP-regulated guanine nucleotide exchange factor 3 (EPAC1)). Conditions: EPAC1 Rap1B-BODIPY-GDP exchange, fluorescence; at 150 µM (top of the series).
From the text: Assay Provider (PI): Xiaodong Cheng Ph.D.
The University of Texas Medical Branch, […], TX
In multi-cellular eukaryotic organisms, the effects of cAMP are transduced by two ubiquitously-expressed intracellular cAMP receptors, the classic protein kinase A/cAMP-dependent protein kinase (PKA/cAPK) and the more recently discovered exchange protein directly activated by cAMP/cAMP-regulated guanine nucleotide exchange factor (EPAC/cAMP-GEF). Both PKA and EPAC are ubiquitously expressed in all tissues, and an increase in intracellular cAMP levels will lead to the activation of both PKA and EPAC. […]
This qHTS will be used to screen the Molecular Libraries Small Molecule Repository (MLSMR) as a concentration-titration series using the NCGC unique quantitative screening (qHTS) platform to find activators for EPAC1. […] Activators are identified by monitoring the change in fluorescence signal as the exchanged free BODIPY-GDP has a reduced fluorescence compared to Rap1-bound BODIPY-GDP. […]
Briefly, three uL of reagents (100 nM EPAC1, 250 nM RAP1B-BODIPY-GDP, 50 uM GDP) were dispensed into a 1536-well Greiner black solid-bottom medium binding assay plate. […] The assay plates were read at 5 minute intervals for 30 minutes in the ViewLux plate reader using 480nm excitation and 540nm emission filters. […]
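Note: plate controls were DMSO for no effect and ATA control for full effect; nearly all actives have a fitted effect of over 75% in size.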

Q: Which activity change, negative = inhibition does the source give for CN1CCCC(OC(=O)C(O)(c2ccccc2)c2ccccc2)C1 (stereo unspecified) here?
A: inactive: 9.54%
